From PubChem BioAssay AID646 (Vanderbilt High Throughput Screening Facility, 2007) come the findings set out here.

Chains of the proteins cited; added tags and fusions are not shown.
UniProt P21728, whole entry: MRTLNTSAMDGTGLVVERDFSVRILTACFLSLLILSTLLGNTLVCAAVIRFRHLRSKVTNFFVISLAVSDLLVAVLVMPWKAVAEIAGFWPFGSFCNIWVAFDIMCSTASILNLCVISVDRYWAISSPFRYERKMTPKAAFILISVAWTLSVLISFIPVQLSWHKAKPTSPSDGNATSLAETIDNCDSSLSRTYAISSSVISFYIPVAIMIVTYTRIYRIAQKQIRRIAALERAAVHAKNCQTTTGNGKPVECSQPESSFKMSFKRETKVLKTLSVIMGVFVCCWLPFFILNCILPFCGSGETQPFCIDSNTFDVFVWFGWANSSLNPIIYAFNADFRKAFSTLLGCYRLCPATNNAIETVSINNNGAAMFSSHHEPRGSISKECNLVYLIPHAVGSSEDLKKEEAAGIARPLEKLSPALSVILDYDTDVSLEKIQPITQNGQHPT

Structures are written as SMILES. The entries are a selection whose mix differs from that of the whole data set. The source made the active and inactive calls. Rule as the data show it: active = luminescence above about 3900; inactive = the rest.

For the test, the target named is D(1A) dopamine receptor (Homo sapiens) (UniProt P21728). Description: intrinsic activation of D1 CRE reporter – cell-based, HEK293 D1, CRE-luciferase, secondary assay 1, mechanism study for D1 allosteric modulator project, confirmation (AID 646). Conditions: no dopamine, at 10 µM, stronger effect = higher value.
Turning to `Cc1nc2ccc3ccccc3c2s1.O=[N+]([O-])c1cc([N+](=O)[O-])c(O)c([N+](=O)[O-])c1`, the luminescence is inactive: 1320.
